Biological target: Kappa-type opioid receptor (Mus musculus) (UniProt P33534)
Test: Selectivity against kappa receptor in the presence of 0.5 nmol icv SIOM

Sequences of proteins named here, by UniProt entry; tags and fusion partners are left off. A change or cut given only in a name is not applied to a line headed by its entry.
UniProt P33534: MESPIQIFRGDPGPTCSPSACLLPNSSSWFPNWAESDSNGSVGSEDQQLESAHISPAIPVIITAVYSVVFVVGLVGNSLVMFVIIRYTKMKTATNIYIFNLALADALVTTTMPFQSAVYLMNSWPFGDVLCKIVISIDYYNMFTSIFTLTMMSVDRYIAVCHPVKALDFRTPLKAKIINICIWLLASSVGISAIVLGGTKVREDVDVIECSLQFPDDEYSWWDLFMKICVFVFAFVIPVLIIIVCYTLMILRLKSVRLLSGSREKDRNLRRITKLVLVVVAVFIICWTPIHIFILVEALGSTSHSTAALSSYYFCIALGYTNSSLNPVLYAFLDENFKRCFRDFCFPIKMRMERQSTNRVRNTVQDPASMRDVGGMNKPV

In the case of `CN(C(=O)Cc1ccc(Cl)c(Cl)c1)C1CCCCC1N1CCCC1` (stereo unspecified), the Ratio is reported as 0.8.

Reference: ChEMBL document CHEMBL1126784, “A selective delta 1 opioid receptor agonist derived from oxymorphone. Evidence for separate recognition sites for delta 1 opioid receptor agonists and antagonists” (J Med Chem, 1993)
